Reference: patent US10759791B2, “Mammalian and bacterial nitric oxide synthase inhibitors” (Northwestern University, priority 2014, dated 2020)

The chains behind the UniProt entries cited, without tags or fusion partners.
UniProt O34453, whole entry I218V: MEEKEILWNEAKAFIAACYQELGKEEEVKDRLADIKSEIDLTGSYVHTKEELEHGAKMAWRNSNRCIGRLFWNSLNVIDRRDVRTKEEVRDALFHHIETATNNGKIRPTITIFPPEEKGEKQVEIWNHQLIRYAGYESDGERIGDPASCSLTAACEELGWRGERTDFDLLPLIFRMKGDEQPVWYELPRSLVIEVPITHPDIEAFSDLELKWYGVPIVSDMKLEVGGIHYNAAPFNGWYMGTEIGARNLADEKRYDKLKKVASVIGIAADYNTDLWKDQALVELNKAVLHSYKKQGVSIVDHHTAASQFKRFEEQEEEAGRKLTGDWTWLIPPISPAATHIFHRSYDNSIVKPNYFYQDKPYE

Molecular target: I218V bsNOS (Bacillus subtilis (strain 168), UniProt O34453, I218V)
Test: Imidazole displacement, spectral binding constant KS
Protocol: Purified bsNOS was diluted to 2 μM into a buffered solution containing 50 mM Tris (pH 7.6), 10 mM NaCl, 100 μM dithiothreitol and 1 mM imidazole to generate a low spin heme. NOS inhibitors were titrated into the bsNOS-buffered solution and the conversion of the heme group from low spin to high spin was monitored using a Cary 3E UV-visible spectrophotometer.

For `Cc1cc(N)nc(-c2ccc(CNCCc3cccc(F)c3)cc2)c1` [Compound 27, 6-(4-(((3-Fluorophenethyl)amino)methyl)phenyl)-4-methylpyridin-2-amine], the “fold tighter binding to Ile-218 (WT) over I218V” value was 5-6 fold.
